The source of these data is ChEMBL document CHEMBL3112409, “A novel class of ion displacement ligands as antagonists of the αIIbβ3 receptor that limit conformational reorganization of the receptor” (Bioorg Med Chem Lett, 2014).

Amino acid sequences for entries named in this document (tags omitted). A change or cut given only in a name is not applied to a line headed by its entry.
UniProt P05106: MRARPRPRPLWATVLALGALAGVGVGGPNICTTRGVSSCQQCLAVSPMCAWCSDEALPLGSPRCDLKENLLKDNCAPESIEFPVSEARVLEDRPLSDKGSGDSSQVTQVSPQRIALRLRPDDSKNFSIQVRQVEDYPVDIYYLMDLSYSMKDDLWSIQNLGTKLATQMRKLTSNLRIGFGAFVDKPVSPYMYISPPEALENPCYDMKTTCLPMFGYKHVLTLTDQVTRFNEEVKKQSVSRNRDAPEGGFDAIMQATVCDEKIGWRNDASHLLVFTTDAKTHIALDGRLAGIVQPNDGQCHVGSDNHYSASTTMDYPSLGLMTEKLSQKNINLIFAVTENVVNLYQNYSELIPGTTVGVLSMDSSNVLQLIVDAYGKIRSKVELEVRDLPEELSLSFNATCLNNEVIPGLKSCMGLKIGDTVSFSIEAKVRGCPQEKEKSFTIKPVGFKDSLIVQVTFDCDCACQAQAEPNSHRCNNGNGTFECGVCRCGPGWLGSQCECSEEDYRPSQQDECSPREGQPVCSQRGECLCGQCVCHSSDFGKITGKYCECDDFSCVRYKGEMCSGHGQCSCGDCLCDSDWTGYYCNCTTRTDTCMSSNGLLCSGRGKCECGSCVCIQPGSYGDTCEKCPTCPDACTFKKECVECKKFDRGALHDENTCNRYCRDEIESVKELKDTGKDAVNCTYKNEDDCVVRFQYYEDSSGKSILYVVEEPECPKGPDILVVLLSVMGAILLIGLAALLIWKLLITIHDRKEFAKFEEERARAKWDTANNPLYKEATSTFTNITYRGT
UniProt P08514: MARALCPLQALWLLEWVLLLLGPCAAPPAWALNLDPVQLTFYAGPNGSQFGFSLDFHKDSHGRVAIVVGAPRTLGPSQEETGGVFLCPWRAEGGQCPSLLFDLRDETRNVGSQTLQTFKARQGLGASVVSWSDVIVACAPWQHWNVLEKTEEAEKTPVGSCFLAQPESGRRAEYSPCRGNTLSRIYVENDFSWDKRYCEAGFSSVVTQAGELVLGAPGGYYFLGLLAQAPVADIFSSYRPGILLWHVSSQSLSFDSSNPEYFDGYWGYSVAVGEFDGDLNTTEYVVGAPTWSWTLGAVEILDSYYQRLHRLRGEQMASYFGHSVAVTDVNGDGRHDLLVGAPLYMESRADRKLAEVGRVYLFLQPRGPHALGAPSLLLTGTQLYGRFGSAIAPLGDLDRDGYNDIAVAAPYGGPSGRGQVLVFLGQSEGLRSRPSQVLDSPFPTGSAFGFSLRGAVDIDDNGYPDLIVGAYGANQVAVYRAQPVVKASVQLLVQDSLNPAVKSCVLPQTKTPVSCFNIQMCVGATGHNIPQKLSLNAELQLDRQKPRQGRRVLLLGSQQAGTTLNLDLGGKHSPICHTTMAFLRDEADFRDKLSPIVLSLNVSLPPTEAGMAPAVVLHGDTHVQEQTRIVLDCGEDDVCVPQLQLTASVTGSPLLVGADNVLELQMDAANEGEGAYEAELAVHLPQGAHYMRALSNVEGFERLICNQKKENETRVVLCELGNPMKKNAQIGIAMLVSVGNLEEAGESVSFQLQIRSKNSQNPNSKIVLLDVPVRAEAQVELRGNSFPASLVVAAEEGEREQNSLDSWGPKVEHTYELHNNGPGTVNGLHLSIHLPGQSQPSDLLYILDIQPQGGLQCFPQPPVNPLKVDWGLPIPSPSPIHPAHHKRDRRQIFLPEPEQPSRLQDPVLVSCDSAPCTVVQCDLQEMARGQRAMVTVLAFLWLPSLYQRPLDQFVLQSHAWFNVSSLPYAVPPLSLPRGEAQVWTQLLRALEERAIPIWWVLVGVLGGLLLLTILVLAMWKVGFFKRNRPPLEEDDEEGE

Data set [1] has as its target Integrin alpha-IIb/beta-3 (Homo sapiens) (UniProt P05106+P08514). As to conditions: 20 uM.
The nature of data set [2]: Intrinsic clearance in mouse liver microsomes. In kind it is ADME, Microsome.
A short description of data set [3]: in vitro. As to conditions: human, in vivo.
The nature of data set [4]: in vitro. The settings on record: rat, in vivo.
Another data set relates to Liver microsome. Briefly: Intrinsic clearance in rat liver microsomes. It counts as ADME.
The nature of data set [5]: in vitro. As to conditions: mouse, in vivo.

`CCc1nn2c(=O)cc(N3CCNCC3)nc2s1` displayed an inhibition in data set [1] of 51%.
Turning to `NCC(=O)Nc1cncc(-c2nn3c(=O)cc(N4CCNCC4)nc3s2)c1` [ZALUNFIBAN], the CLH was 89 µL/min/mg in data set [2] and 54.9 µL/min/mg in the data set on Liver microsome. Further, the results for the half-life in the data set “in vitro [3]”, in “in vitro [4]” and in “in vitro [5]” were 58.9 min, 25.3 min and 15.6 min, respectively.
